# Ab-14 heavy chain CDR variants: yeast mating affinities

Antigen: PDVDLGDISGINAS, a 14-residue peptide of the SARS-CoV-2 spike HR2 region.

Parent: Ab-14, a human scFv built as VH, a (GGGGS)3 linker, VL. Only the CDRs of the heavy chain vary.
VH: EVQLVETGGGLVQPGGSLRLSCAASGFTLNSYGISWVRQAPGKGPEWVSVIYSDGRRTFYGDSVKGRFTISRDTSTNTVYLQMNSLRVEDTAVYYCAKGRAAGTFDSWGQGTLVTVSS
VL: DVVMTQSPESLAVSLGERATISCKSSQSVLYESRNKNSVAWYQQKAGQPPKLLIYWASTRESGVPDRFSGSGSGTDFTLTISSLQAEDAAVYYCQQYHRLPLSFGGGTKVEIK

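Library AAYL49 holds single substitutions and randomly drawn double and triple substitutions in the CDRs. The assay is AlphaSeq: two haploid yeast populations carry antibody and antigen on their surface. After mating in shaken culture at 30 °C for 16 h, diploids were selected and their barcode pairs sequenced. The ratio of observed to expected reads was calibrated, replicate by replicate, on BCL2-family standards whose Kd was known from biolayer interferometry. The assay was run in three technical replicates.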

Variants are written as CDR1, CDR2 and CDR3 of the heavy chain (limits as in the source). Parent: GFTLNSYGIS, VIYSDGRRTFYGDSVK, GRAAGTFDS. Numbers give log10(Kd / nM), so 0 is 1 nM and 3 is 1 µM. Smaller is tighter. "ND" marks a missing value. The strain was present, yet no cells mated with the target were sequenced in that replicate, which points to weak or no binding. For reference, the parent read 0.65 as the reference entry and 4.11 (one replicate of three) as a member of this library.

| CDR-H1 | CDR-H2 | CDR-H3 | replicates, log10 nM | empty controls |
|---|---|---|---|---|
| GFTLNSYGIS | VIYSDGRRTFYGDLVK | GRAAGTFDL | 2.49 2.44 2.22 | 4/9 (4.46) |
| GFTLNSYGIS | VIYSDGRLTFYGDIVK | GRPAGTFDS | ND ND 3.72 | 1/9 (3.61) |
| GFTDNIYGIS | VIYSDHRRTFYGDSVK | GRAAGTFDS | ND ND ND | 1/9 (3.10) |
| GFTGNSYGIS | QIYSDGRRTFYGDSVK | GRAAGTFDS | ND 3.98 ND | 2/9 (4.29) |
| GFTLNSYGIS | VIYSDGRRPFDGDSVK | GRAAITFDS | ND ND ND | 0/9 |
| GFTLNSYGIS | VIYSDGRNTFYGDWVK | GRQAGTFDS | 4.38 ND ND | 2/9 (3.77) |
| GFTLNSYGIS | PIYSDGRRVFYGDSVK | GRAAGTFKS | ND ND ND | 2/9 (3.67) |
| GFTHNSFGIS | VIYSDGRRTFYGDSVK | GRAAGTMDS | ND ND ND | 1/9 (3.60) |
| GFTLNSYGRS | VIYSDQTRTFYGDSVK | GRAAGTFDS | ND ND ND | 0/9 |
| GVTLASYGIT | VIYSDGRRTFYGDSVK | GRAAGTFDS | ND ND ND | 2/9 (3.00) |
| GFTLNSYGQS | VIYSDGRRTFYGDWVK | GRAANTFDS | ND ND ND | 1/9 (4.86) |
| GFTANSYEIS | VCYSDGRRTFYGDSVK | GRAAGTFDS | 5.08 ND ND | 2/9 (3.65) |
| GFTLNSYGIS | CIYSDGRMTFYGISVK | GRAAGTFDS | ND ND ND | 1/9 (3.32) |
| GFTLNMYGIS | VIYSDGRRTFYGDSVC | GRAAGGFDS | 2.13 2.21 ND | 0/9 |
| LFTLNSYGIS | VIYSDGRRTFYGDHVK | GRAAGVFDS | ND ND ND | 0/9 |
| GFYLNTYGIS | VIYSDGRRTFYVDSVK | GRAAGTFDS | 2.25 ND ND | 0/9 |
| GFALNSYGIS | VWYSDGRRTFYGDSVK | GRAAGTFDD | ND ND ND | 0/9 |
| GFTLNSYGIS | VIYSDGRRTFYGHSEK | GRAAGGFDS | 4.42 ND ND | 5/9 (3.87) |
| GFTLNSYGIS | VIYSRGRRTFYGDNVK | GRACGTFDS | ND 4.11 ND | 2/9 (3.86) |
| GFTLNMFGIS | VIYSDGRRTFYGDSVK | GRAAGTFHS | ND ND ND | 1/9 (4.18) |
| GFTLNSYRIS | VIYSDGRRTFYGDSVR | GRAAGTFDC | ND 4.25 3.51 | 0/9 |
| GFTLNSYGIS | VISSDGRRTKYGDSVK | GEAAGTFDS | 5.62 ND 4.04 | 3/9 (4.33) |
| GFKLNSYGIS | VIYSDGRRTFYGDYEK | GRAAGTFDS | ND ND ND | 0/9 |
| GETKNSYGIS | VIYSDGRRTFYGDSVK | GRAATTFDS | ND ND ND | 0/9 |
| RFTLNSYGIS | VIYSDGRRTFYGDSVK | GRARGKFDS | ND ND ND | 1/9 (3.76) |
| GFHLNSYGIS | VIQSDGRRTFYGDSVK | GRAAGTFMS | ND 3.50 ND | 0/9 |
| GFTLNSYGIS | VIYSDGRRTFYPDWVV | GRAAGTFDS | ND ND ND | 1/9 (3.16) |
| GFTLNSYVIS | VIYSDGRRTHYGDSVK | GRAAWTFDS | ND 3.79 6.61 | 5/9 (5.08) |
| MFTLNSYGIS | FIYSDGRRTFYGDSVK | GRAAGIFDS | ND ND ND | 1/9 (3.79) |
| GFTLNSYGLS | VIYVDGRRTFYYDSVK | GRAAGTFDS | ND ND ND | 0/9 |
| GFTLRSYGIS | VDYSDGRRTFYADSVK | GRAAGTFDS | 3.64 ND ND | 2/9 (3.48) |

Again, the first 3 entries without any signal:

{"CDR-H1": "GFTDNIYGIS", "CDR-H2": "VIYSDHRRTFYGDSVK", "CDR-H3": "GRAAGTFDS", "replicates, log10 nM": "ND ND ND", "empty controls": "1/9 (3.10)"}
{"CDR-H1": "GFTLNSYGIS", "CDR-H2": "VIYSDGRRPFDGDSVK", "CDR-H3": "GRAAITFDS", "replicates, log10 nM": "ND ND ND", "empty controls": "0/9"}
{"CDR-H1": "GFTLNSYGIS", "CDR-H2": "PIYSDGRRVFYGDSVK", "CDR-H3": "GRAAGTFKS", "replicates, log10 nM": "ND ND ND", "empty controls": "2/9 (3.67)"}

Nonspecific signal, from three strains lacking the peptide, appeared in 15% of pairings of library AAYL49, centred on 4.06 (5% of these signals below 2.83); values are not corrected for it. Also given: how often the same scFv was detected with the empty control strains, with their mean in brackets.

Source: Engelhart et al. 2022 (doi:10.1038/s41597-022-01779-4), MIT Lincoln Laboratory and A-Alpha Bio; data file from the FLAb repository.